Columns and labels:
[1] = Control group: spontaneous drug degradation in whole blood at 37°C; details: control of Sorin experiment, whole human blood, no circuit, HPLC-MS/MS, % of 2 min concentration, single measurement; for Drug recovery, Control-12 h (Sorin experiment): water bath 37°C 12 h
[2] = Drug recovery in the Sorin ECMO circuit; details: phosphorylcholine-coated circuit, whole human blood, 37°C, HPLC-MS/MS, % of 2 min concentration, single measurement

Row | Drug recovery, Control-3 h (Sorin experiment) ([1]; water bath 37°C 3 h) [%] | Drug recovery, Control-12 h (Sorin experiment) [1] [%] | Drug recovery, Sorin circuit, 3 h ([2]; 3 h) [%] | Drug recovery, Sorin circuit, 5 min ([2]; 5 min) [%] | Drug recovery, Sorin circuit, 15 min ([2]; 15 min) [%] | Drug recovery, Sorin circuit, 30 min ([2]; 30 min) [%] | Drug recovery, Sorin circuit, 1 h ([2]; 1 h) [%] | Compound
1 | 103 | 101 | 103 | – | – | – | – | CCN1CCN(C(=O)N[C@@H](C(=O)N[C@@H]2C(=O)N3C(C(=O)O)=C(CSc4nnnn4C)CS[C@H]23)c2ccc(O)cc2)C(=O)C1=O [Cefoperazone, cefoperazone]
2 | – | 106 | – | 104 | 104 | 104 | 103 | C[C@@H](O)[C@H]1C(=O)N2C(C(=O)O)=C(S[C@@H]3CN[C@H](C(=O)N(C)C)C3)[C@H](C)[C@H]12 [Meropenem, meropenem]

Source: paper PMC8671752, “Effects of ex vivo Extracorporeal Membrane Oxygenation Circuits on Sequestration of Antimicrobial Agents” (Frontiers in Medicine, 2021)
